Measurements as given in PMC10305189, “Synthesis, Bioactivity and Molecular Docking of Nereistoxin Derivatives Containing Phosphonate” (2023).

Assays:
Myzus persicae Sulzer = details: positive control at 40 μg/mL

Row | Compound | Corrected Mortality Rate (%) M. persicae 24 h (Myzus persicae Sulzer; 24 h) [%] | Corrected Mortality Rate (%) M. persicae 48 h (Myzus persicae Sulzer; 48 h) [%] | LC50 (Rhopalosiphum padi; R. padi) [µg/mL] | Corrected Mortality Rate (%) R. padi 48 h (Rhopalosiphum padi; positive control at 40 μg/mL, 48 h) [%]
1 | CN1COCN(Cc2cnc(Cl)s2)/C1=N\[N+](=O)[O-] | 70.01 | 94.12 |  | 
2 | Flunicotamid |  |  | 10.83 | 93.23
